Sequences of proteins named here, by UniProt entry; tags and fusion partners are left off. Residues count along the entry.
UniProt P56817, 46-501: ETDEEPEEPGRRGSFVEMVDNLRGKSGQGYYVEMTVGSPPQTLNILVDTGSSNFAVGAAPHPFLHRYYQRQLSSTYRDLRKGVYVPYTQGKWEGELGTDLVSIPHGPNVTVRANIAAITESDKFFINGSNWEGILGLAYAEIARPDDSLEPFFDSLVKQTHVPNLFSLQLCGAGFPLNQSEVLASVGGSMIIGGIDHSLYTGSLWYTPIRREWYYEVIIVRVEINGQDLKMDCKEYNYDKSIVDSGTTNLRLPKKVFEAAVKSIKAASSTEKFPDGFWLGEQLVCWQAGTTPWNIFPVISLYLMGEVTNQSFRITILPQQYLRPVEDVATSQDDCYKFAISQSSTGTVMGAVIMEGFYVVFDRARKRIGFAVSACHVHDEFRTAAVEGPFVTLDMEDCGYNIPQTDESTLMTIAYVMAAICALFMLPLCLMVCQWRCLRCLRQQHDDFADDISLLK

In US9067926B2, “Fluoromethyl-5,6-dihydro-4H-[1,3]OXAZINES” (F. Hoffmann-La Roche AG, priority 2012, dated 2015):

Molecular target: T1, BACE1 (Homo sapiens, UniProt P56817)
T1 construct: endogenous in cells; host or cells: HEK293 APP cells
Experiment: Cellular Aβ-lowering assay (Abeta 40 AlphaLISA)
Format: cell-based
Details: HEK293 APP cells, 18-20 hrs incubation, Aβ 40 in culture supernatant; read-out: BACE1 cell act. Aβ40 IC50
Experimental: Cellular Aβ-Lowering Assay:
The Abeta 40 AlphaLISA Assay can be used. The HEK293 APP cells were seeded in 96 well Microtiter plates in cell culture medium (Iscove's, plus 10% (vv) fetal bovine serum, penicillinstreptomycin) to about 80% confluency and the compounds were added at a 3× concentration in 13 volume of culture medium (final DMSO concentration was kept at 1% vv). After 18-20 hrs incubation at 37° C. and 5% CO2 in a humidified incubator, the culture supernatants were harvested for the determination of Aβ 40 concentrations using Perkin-Elmer Human Amyloid beta 1-40 (high specificity) Kit (Cat# AL275C).
Levels of Aβ 40 in the culture supernatants were calculated as percentage of maximum signal (cells treated with 1% DMSO without inhibitor). The IC50 values were calculated using the Excel XLfit software.

IC50	Structure (SMILES)
11 nM	COc1ccc(C(=O)Nc2ccc(F)c([C@]3(CF)C[C@@H](C(F)(F)F)OC(N)=N3)c2)nc1 [Example 30, N-(3-((4S,6S)-2-Amino-4-(fluoromethyl)-6-(trifluoromethyl)-5,6-dihydro-4H-1,3-oxazin-4-yl)-4-fluorophenyl)-5-methoxypicolinamide]
31 nM	COc1cnc(C(=O)Nc2ccc(F)c([C@]3(CF)C[C@@H](C(F)(F)F)OC(N)=N3)c2)cn1 [Example 36, N-(3-((4S,6S)-2-Amino-4-(fluoromethyl)-6-(trifluoromethyl)-5,6-dihydro-4H-1,3-oxazin-4-yl)-4-fluorophenyl)-5-methoxypyrazine-2-carboxamide]
15 nM	NC1=N[C@](CF)(c2cc(NC(=O)c3ncc(Cl)cc3Cl)ccc2F)C[C@@H](C(F)(F)F)O1 [Example 29, N-(3-((4S,6S)-2-Amino-4-(fluoromethyl)-6-(trifluoromethyl)-5,6-dihydro-4H-1,3-oxazin-4-yl)-4-fluorophenyl)-3,5-dichloropicolinamide]
